{"sequences": {"note": "Sequences of proteins named here, by UniProt entry; tags and fusion partners are left off.", "UniProt P25099, whole entry": "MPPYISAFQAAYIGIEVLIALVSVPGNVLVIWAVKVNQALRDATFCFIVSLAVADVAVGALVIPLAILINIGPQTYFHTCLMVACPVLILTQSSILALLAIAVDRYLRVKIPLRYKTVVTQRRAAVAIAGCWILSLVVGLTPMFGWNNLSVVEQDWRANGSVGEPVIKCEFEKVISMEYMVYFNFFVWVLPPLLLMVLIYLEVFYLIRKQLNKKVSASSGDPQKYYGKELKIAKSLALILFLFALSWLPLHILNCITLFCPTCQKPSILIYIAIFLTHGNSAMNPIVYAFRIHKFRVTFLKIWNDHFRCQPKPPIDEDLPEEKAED"}, "source": "patent US6821979B2", "about": "“Synergistic enhancement of cognitive ability” (Blanchette Rockefeller Neurosciences Institute, priority 2002, dated 2004)", "origin": "cited, not measured here", "molecular_target": "T1, adenosine A1 receptor (Rattus norvegicus, UniProt P25099)", "T1 construct": "host or cells: animal in vivo and hippocampal CA1; endogenous receptor"}
{"smiles": "CCCn1c(=O)c2[nH]c(C3CCCC3)nc2n(CCC)c1=O", "note": "[DPCPX]", "values": [{"measurement": "spatial learning and functional impairment of hippocampal CA1 synaptic plasticity after hypoxia", "result": "preventable"}]}
